Measurements reported in patent US20210085796A1, “ANTICANCER DRUGS AND METHODS OF MAKING AND USING SAME” (YALE UNIVERSITY, priority 2017, published 2021).

How the values were obtained:
[1] = test system: MDA-MB-231 breast cancer cells; experiment: pH-dependent cell growth inhibition (CellTiter-Glo); type: cell-based, Human; settings: 6 hours treatment, then 72 hours growth
Description: FIG. 6 depicts pH-dependent cell growth inhibition of MDA-MB-231 breast cancer cells in culture, treated transiently with Drug (in this case doxorubicin HCl) or various prodrugs of the invention. Cells treated for 6 hours at pH 7.4 (normal physiological pH, X traces) or pH 6.2 (acidic solid tumor pH, Y traces) were subsequently allowed to grow in normal growth medium for 72 hours, then cell viability was evaluated using the CellTiter-Glo assay kit (Promega). Normalized percent cell growth inhibition is plotted on the left side of each panel and IC50 values reported at each pH from non-linear regression analysis.
In order to evaluate pH-dependent activity, treatments are performed at atypical cell culture conditions. […] Several cell lines have been evaluated using this method and for each, cell seeding density and treatment duration is independently experimentally determined. Each experiment is normalized to sham and complete activity controls for each pH condition.
Human MDA-MB-231 breast cancer cells seeded at low density on tissue culture treated 384-well plates, allowed to adhere and grow in serum-supplemented growth medium for 24 hours, then treated under pH-controlled conditions for 6 hours, and finally washed and grown in fresh growth media for 72 hours were assessed for cell survival using the CellTiter-Glo assay system (Promega) (FIG. 6).

[2] = intravenous injection; cited from earlier work

## COc1cccc2c1C(=O)c1c(O)c3c(c(O)c1C2=O)C[C@@](O)(C(=O)CO)C[C@@H]3O[C@H]1C[C@H](N)[C@H](O)[C@H](C)O1 [Doxorubicin, reference compound]
[1]
  fold lower IC50 value in cells treated at pH 7.4 than at pH 6.2: > 15 fold
[2]
  t1/2 of distribution from the blood into tissues: ~5 min
